# Test results taken from patent US20130171163A1, “Inhibition of LAR Phosphatase to Enhance Therapeutic Angiogenesis” (priority 2010, published 2013).
# The chains behind the UniProt entries cited, without tags or fusion partners. Residues count along the entry.
# UniProt P08069, 741-1367 limits assumed: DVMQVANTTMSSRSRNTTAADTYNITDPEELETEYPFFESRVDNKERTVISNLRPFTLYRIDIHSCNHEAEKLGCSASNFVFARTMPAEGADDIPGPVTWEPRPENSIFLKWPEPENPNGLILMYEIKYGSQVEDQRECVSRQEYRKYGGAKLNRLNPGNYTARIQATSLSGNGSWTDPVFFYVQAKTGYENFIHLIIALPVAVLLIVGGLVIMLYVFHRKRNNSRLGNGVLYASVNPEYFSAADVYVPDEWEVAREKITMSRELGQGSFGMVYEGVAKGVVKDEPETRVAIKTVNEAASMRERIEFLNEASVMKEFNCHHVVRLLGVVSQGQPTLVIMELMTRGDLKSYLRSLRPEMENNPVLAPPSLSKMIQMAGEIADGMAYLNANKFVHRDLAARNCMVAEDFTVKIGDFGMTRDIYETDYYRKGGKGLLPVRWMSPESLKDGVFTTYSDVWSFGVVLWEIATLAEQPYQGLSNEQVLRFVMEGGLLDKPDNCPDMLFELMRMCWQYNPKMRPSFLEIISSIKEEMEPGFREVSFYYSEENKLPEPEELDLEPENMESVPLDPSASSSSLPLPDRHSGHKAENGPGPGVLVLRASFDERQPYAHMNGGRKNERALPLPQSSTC
# UniProt P08069, 31-736 limits assumed: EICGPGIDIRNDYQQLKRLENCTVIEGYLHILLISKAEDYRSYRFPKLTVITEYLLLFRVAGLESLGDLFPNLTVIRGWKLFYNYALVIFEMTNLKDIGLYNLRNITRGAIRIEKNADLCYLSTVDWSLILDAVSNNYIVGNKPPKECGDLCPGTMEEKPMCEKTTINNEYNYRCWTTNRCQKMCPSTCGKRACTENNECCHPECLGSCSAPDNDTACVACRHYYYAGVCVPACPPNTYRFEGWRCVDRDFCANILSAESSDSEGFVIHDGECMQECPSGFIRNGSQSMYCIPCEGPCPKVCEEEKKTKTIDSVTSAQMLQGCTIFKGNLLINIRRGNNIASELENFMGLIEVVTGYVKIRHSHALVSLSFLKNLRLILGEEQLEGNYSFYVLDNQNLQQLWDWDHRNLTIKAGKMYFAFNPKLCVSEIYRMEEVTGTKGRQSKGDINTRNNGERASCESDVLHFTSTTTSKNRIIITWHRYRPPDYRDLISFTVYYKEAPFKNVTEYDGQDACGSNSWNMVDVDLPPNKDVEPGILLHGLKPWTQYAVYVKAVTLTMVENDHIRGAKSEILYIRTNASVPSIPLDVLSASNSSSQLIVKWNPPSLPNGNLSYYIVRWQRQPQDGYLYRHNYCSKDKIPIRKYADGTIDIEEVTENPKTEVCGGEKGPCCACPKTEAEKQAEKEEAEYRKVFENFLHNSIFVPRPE
# Biological target: T1, IGF-1Rβ-LAR complex (Homo sapiens, UniProt P08069)
# T1 construct: LAR co-immunoprecipitated with IGF-1Rβ in untreated HUVECs; endogenous in cells; host or cells: HUVEC (Cambrex)
# Test: Co-immunoprecipitation of LAR with IGF-1Rβ in HUVECs
# Assay type: cell-based
# Settings: 100 ng/ml IGF-1 for 10 min
# Method: Preparation of cell lysates, immunoprecipitation and immunoblotting were performed as described (Reinmuth et al., Clin. Cancer Res. 8:3259 (2002)).
# Analogous experiments were performed to determine whether binding of LAR to IGF-1Rβ accounts for the negative regulation of IGF-1Rβ by this PTP in HUVECs. Cell lysates from HUVECs, treated without or with IGF-1, were immunoprecipitated with anti-cytoplasmic LAR (cLAR) antibody and Western blotting was performed with anti-IGF-1Rβ antibody.
substance,measurement,value
IGF-1: Recombinant human IGF-1 purchased from R&D Systems,Association of LAR with IGF-1Rβ,significantly enhanced
